{
  "source": "patent US6740635B2",
  "about": "“Antiviral linear polymers” (Biomolecular Research Institute Ltd., priority 1996, dated 2004)",
  "tested_on": "uninfected cells",
  "data": [
    {"substance": "Dextran Sulfate [DS5000 Dextran Sulfate]", "values": [
      {"measurement": "CC50", "value": ">250", "unit": "µg/mL"}
    ]}
  ]
}
